The record followed here is patent US11312939B2, “Constructs for chimeric antigen receptors” (Carisma Therapeutics Inc., priority 2020, dated 2022).

Assay [1] has as its system HER2+ breast cancer cells (CRL2351). Kind of assay: Cancer cell killing by cytokine treated HER2 CAR macrophages (Incucyte). It is filed as cell-based. How it is done:
(§1) Human macrophages were electroporated with HER2 CAR mRNA comprising m6AGCap1 and PsU modifications. Cells were cultured with cytokines that induce an M1 phenotype such as IFN-alpha, IFN-beta, IFN-gamma, IFN-gamma plus lipopolysaccharide (LPS), TNF-alpha, IL-6 or a STING ligand (STING-L) for up to 48 hours and then cytokines were washed off and fresh media was added. CAR expression and M1 marker expression were measured on days 2 and 7 after transfection. Fluorescent labeled HER2+ breast cancer cells (CRL2351) were co-cultured with HER2 CAR macrophages two days after the macrophages were transfected. Cancer cell growth was monitored via its fluorescence on an Incucyte® live imaging microscope every four hours. The Effector (CAR macrophage) to Target (cancer cell) ratio was 5:1.
(§2) Five different mRNA modifications were also tested to determine if interferon treatment differentially affected macrophages transfected with mRNA comprising different modifications. Human macrophages were electroporated with HER2 CAR mRNA comprising different mRNA modifications. CAR expression and M1 markers were detected by Flow Cytometry (Attune) on day four after electroporation. Day 4 CAR macrophage cells were then co-cultured with a Nuc-Light labeled, HER2+ breast cancer cell line (CRL2351) at an Effector (CAR macrophage) to Target (cancer cell) ratio of 5:1. Cancer cell growth was monitored via its fluorescence on an Incucyte® live imaging microscope every four hours.
To evaluate the anti-tumor function of macrophages transfected with mRNA encoding a HER2 CAR with or without priming with IFN-β, untransduced (UTD) or CAR macrophages were primed with 0, 3, 10, 30, or 100 ng/mL IFN-β for 4 hours or 20 hours. These effector cells were then co-cultured with the HER2+ breast cancer cell line CRL2351-GFP at an effector to target ratio of 3:1 or 1.5:1 and anti-tumor activity was measured based on GFP expression using an Incucyte® live imaging microscope. […] To evaluate whether the improved mRNA-transfected CAR macrophage anti-tumor effect was universal to all interferons or only interferon beta, macrophages electroporated with M6AGCap1/PsU mRNA were treated with IFN-alpha, beta, or gamma and evaluated for their cancer cell killing ability.
Additional studies were performed to determine if treatment with interferons could further improve CAR mRNA persistence in macrophages and if CAR macrophage functionality could be extended. […] CAR expression was detected by Flow Cytometry (Attune) on day 2 after transfection. […] Cancer cell growth was monitored via its fluorescence on an Incucyte® live imaging microscope. CAR expression and M1 markers in macrophages were detected by Flow Cytometry (Attune) on day 7 after transfection.

The test system of assay [2] is HER2 CAR macrophages co-cultured with HER2+ breast cancer cells (CRL2351). Kind of assay: Cytokine secretion of interferon treated HER2 CAR macrophages in co-culture (MSD). It is filed as cell-based, human. The conditions noted are these: E:T 3:1, supernatant at 48 hours. How it is done:
To evaluate whether interferon treatment of macrophages improved other anti-tumor functions, the cytokine secretion of interferon treated or untreated mRNA transfected HER2 CAR macrophages after co-culture with HER2+ breast cancer cells was evaluated. Human macrophages were electroporated with 150 nM HER2 CAR mRNA comprising m6AGCap1 and PsU modifications. HER2+ breast cancer cells (CRL2351) were co-cultured with CAR macrophages after the macrophages were transfected with the CAR mRNA at an Effector (CAR macrophage) to Target (cancer cell) ratio of 3:1. Supernatant was collected 48 hours after the cancer cells and macrophages were co-cultured and cytokine levels were measured using a Meso Scale Discovery (MSD) instrument.

The subject of assay [3] is Human macrophages electroporated with HER2 CAR mRNA. Kind of assay: Cytokine treatment of HER2 CAR mRNA macrophages: viability, CAR expression, M1/M2 markers by flow cytometry. The assay is classed as cell-based. How it is done: as §1, §2
To further evaluate the impact of IFN-β on CAR persistence, human macrophages electroporated with m6AGCap1/PsU mRNA encoding a HER2 CAR were evaluated on day 2 and day 7.
In order to validate the effect of IFN-β treatment on improved CAR expression, and to optimize the IFN-β concentration, macrophages transfected with M6AGCap1/PsU modified mRNA were treated with 0, 3, 10, 30, or 100 ng/mL IFN-β for 4 hours and the viability, CAR percentage, and CAR MFI were evaluated on day 4 and day 7 post electroporation.
Given that macrophage phenotype is considered plastic, and immunosuppressive cytokines such as IL-10 are known to induce an M2 phenotype, the impact of IL-10 treatment on IFN-β treated or untreated HER2 CAR mRNA transfected macrophages was evaluated.
Additional studies were performed to determine if treatment with interferons could further improve CAR mRNA persistence in macrophages and if CAR macrophage functionality could be extended. Human macrophages were electroporated with 300 nM CAR mRNA comprising m6AGCap1 and PsU modifications. Cells were cultured with 20 ng/mL IFNs for 24 hours and then the cells were washed to remove cytokines. CAR expression was detected by Flow Cytometry (Attune) on day 2 after transfection. Cells were then co-cultured with a Nuc-Light labeled, HER2+ breast cancer cell line (CRL2351) at the Effector to Target ratio of 3:1. Cancer cell growth was monitored via its fluorescence on an Incucyte® live imaging microscope. CAR expression and M1 markers in macrophages were detected by Flow Cytometry (Attune) on day 7 after transfection.

Where [4] appears, read: 48 hours and 7 days post-treatment with IL-10.

B1: IFN-β: interferon cytokine that induces an M1 phenotype (protein, UniProt P01574 22-187, looked up)
Interferon beta: MSYNLLGFLQRSSNFQCQKLLWQLNGRLEYCLKDRMNFDIPEEIKQLQQFQKEDAALTIYEMLQNIFAIFRQDSSSTGWNETIVENLLANVYHQINHLKTVLEEKLEKEDFTRGKLMSSLHLKRYYGRILHYLKAKEYSHCAWTIVRVEILRNFYFINRLTGYLRN
As for B1, in assay [1] (0-100 ng/mL for 4 or 20 hours, E:T 3:1 or 1.5:1), the “anti-tumor activity of primed CAR macrophages” value is “improved ability for CAR macrophages to kill cancer cells”. Besides, the “cancer cell killing, comparison of interferons” value in assay [1] (M6AGCap1/PsU mRNA) was “best cancer cell killing”. Further, the cancer cell killing result in assay [1] (macrophages 7 days post-electroporation, 72 hours co-culture) was “highest level of cancer killing”. The “anti-tumor activity of CAR macrophages with differently modified mRNAs” value in assay [1] (with or without treatment) was “improved anti-tumor activity for all CAR macrophages except those transfected with 5 moU mRNA”. Also, the “secretion of IL-6, IL-8 and TNFα from macrophages” value in assay [2] is “increased secretion of the cytokines IL-6, IL-8 and TNFα”. Moreover, the “induction of M1 markers CD80, CD86, and HLA-DR” value in assay [3] (0-100 ng/mL) is “dose-dependent”. In assay [3] (setting [4]), the “M1 marker CD86 after IL-10 treatment” value was “retaining expression of the M1 marker CD86” and the “M2 marker CD163 after IL-10 treatment” value is recorded as “did not express the M2 marker CD163”. Also, the “persistence of M1 phenotype post treatment” value in assay [3] (CD86) was “at least 7 days”. The “expression of M1 markers CD80, CD86 and HLA-DR vs no interferon” value in assay [3] (day 7, 20 ng/mL 24 hours) was “increased”. Besides, in assay [3] (days 2 and 7), the “M1 phenotype based on CD86 expression” value was “strongest M1 phenotype” and the “M2 markers based on CD163 expression” value is listed as “reduction of M2 markers”.
